Assay outcomes (PubChem BioAssay)
An excerpt weighted towards active compounds, which were near 0.34% of everything screened.
Cneo AK release: Cryptococcus neoformans cell lysis inducers, primary screen, AK release luminescence, single concentration; C. neoformans lysis, adenylate kinase release luminescence, 4 h; normalised: neutral wells 0, clomiphene wells 100; lysis activity, % at 15 µM; actives 0.2% (n = 360,000); AID 651654, 2012;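 active = mean lysis activity across replicates of at least 80%, whatever share of replicates individually reach that level; inactive = mean lysis activity below 80%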
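Assay system: log-phase C. neoformans yeast / Quantity: yeast cell density of 5 × 10^6 cells/mL / Medium: fresh YPD growth medium / Compound: single dose / Timing: static 4 h at 37 °C with compound, 1 h detection / Measured by: adenylate kinase release luminescence / Read-out: lysis from increased AK signal / Benchmarks: Clomiphene as positive lysis control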
ERp5 block: inhibitors of ERp5-driven insulin aggregation, primary screen, biochemical, turbidity, absorbance 650 nm, single point; AID 651711, 2012; inhibition, % at 9.99 µM; actives 0.05% (n = 350,000); 90 min;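 active = mean replicate inhibition above about 25%, with every replicate also reaching it, limit read from the data, passing the limit was not always enough; inconclusive = only one of those two criteria met; inactive = neither criterion met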
PDI inh: inhibitors of human PDI, primary screen, biochemical, turbidity, single point, plate reader | Protein disulfide-isomerase (Homo sapiens), P07237 | PDI insulin aggregation turbidity, A650, 90 min | inhibition, % at 10 µM | actives 0.052% (n = 350,000) | AID 588391, 2011;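 active = mean inhibition across replicates of 30% or more, whatever share of single replicates reach that level; inconclusive = mean inhibition below 30% while every single replicate reaches 30%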
Yeast UUG start: yeast start codon fidelity modulation; AID 602363; activity score, % at 18.7 µM; S. cerevisiae UUG-firefly luciferase reporter, luminescence/redox ratio; 0.13% of 350,000 active;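 active means replicate mean at a twofold rise or more, about +100% in these data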;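 further: firefly luciferase made from a UUG start codon reports start codon fidelity; reporter light over untreated wells divided by growth signal over untreated wells; some hits fall short of that in this replicate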
Each line names hits and unclear results; the compound was inactive in the other large screens.

Amino acid sequences for entries named in this document (tags omitted).
Protein disulfide-isomerase (Homo sapiens), P07237, UniProt P07237, whole entry, looked up: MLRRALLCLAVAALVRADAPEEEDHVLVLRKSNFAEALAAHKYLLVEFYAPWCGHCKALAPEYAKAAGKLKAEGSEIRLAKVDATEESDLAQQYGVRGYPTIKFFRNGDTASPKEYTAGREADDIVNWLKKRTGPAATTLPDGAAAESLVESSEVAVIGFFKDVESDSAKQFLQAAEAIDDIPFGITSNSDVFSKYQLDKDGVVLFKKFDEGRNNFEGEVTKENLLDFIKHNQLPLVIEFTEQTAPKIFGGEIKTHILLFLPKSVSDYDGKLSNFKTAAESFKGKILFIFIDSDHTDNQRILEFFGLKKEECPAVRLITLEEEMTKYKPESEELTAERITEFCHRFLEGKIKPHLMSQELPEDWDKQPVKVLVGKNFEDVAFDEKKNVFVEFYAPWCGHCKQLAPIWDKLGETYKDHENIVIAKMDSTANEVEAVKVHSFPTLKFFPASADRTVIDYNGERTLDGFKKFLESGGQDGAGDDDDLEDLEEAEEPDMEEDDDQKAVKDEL

C[C@H]1CN([C@@H](C)CO)C(=O)c2cc(NC(=O)Nc3cccc4ccccc34)ccc2O[C@@H]1CN(C)C(=O)Nc1ccc(C(F)(F)F)cc1	Cneo AK release 90 (no result: PDI inh)
C[C@H]1CN([C@@H](C)CO)C(=O)c2cc(NC(=O)Nc3cccc4ccccc34)ccc2O[C@H]1CN(C)C(=O)Nc1ccccc1	none (no result: PDI inh)
C[C@@H]1CN([C@@H](C)CO)C(=O)c2cc(NC(=O)Nc3cccc4ccccc34)ccc2O[C@@H]1CN(C)C(=O)Nc1ccccc1	Cneo AK release 107, ERp5 block inconclusive (no result: PDI inh)
Cc1noc(C)c1S(=O)(=O)N(C)C[C@@H]1OCCCC[C@@H](C)Oc2ccc(NS(=O)(=O)c3cccs3)cc2C(=O)N([C@@H](C)CO)C[C@H]1C	none (no result: PDI inh)
CN(C)CC(=O)N1CC2(C1)[C@@H](c1ccccc1)[C@@H](CO)N2Cc1cc(F)ccc1F	none (no result: Cneo AK release, PDI inh, Yeast UUG start)
C[C@H]1CN([C@@H](C)CO)C(=O)c2cccc(NC(=O)c3nc4ccccc4s3)c2O[C@@H]1CN(C)C(=O)Nc1ccc(C(F)(F)F)cc1	ERp5 block 27 (no result: PDI inh)
CC1O[C@@H](OCC2O[C@@H](Oc3cc(O)c4c(c3)OC(c3ccc(O)cc3)CC4=O)[C@H](O)[C@@H](O)[C@@H]2O)[C@H](O)[C@H](O)[C@H]1O (stereo partly specified)	none (no result: PDI inh)
O=C1C[C@H](c2ccc(O)cc2)Oc2cc(O[C@@H]3O[C@H](CO)[C@@H](O)[C@H](O)[C@H]3O)cc(O[C@@H]3O[C@H](CO)[C@@H](O)[C@H](O)[C@H]3O)c21	PDI inh 39
C[C@H](CO)N1C[C@H](C)[C@@H](CN(C)CC2CC2)OCCCC[C@H](C)Oc2ccc(NS(C)(=O)=O)cc2C1=O	none (no result: PDI inh, Yeast UUG start)
CN(Cc1ccccc1F)c1ccc(S(=O)(=O)N2CCCC2)cn1	none (no result: Cneo AK release, Yeast UUG start)
COc1ccccc1CN(C)c1ccc(S(=O)(=O)N2CCN(C)CC2)cn1	ERp5 block 31
COCC(=O)N(C)C[C@H]1Oc2cc(C#CCC(C)C)ccc2S(=O)(=O)N([C@H](C)CO)C[C@H]1C	none (no result: PDI inh)
N#Cc1ccc(C23CC4(C2)[C@H](CN(Cc2ccc(C(F)(F)F)cc2)[C@@H]4c2ccccc2)C3c2ccccc2)cc1 (stereo partly specified)	Cneo AK release 135
Cc1noc(C)c1NC(=O)Nc1ccc2c(c1)C(=O)N([C@@H](C)CO)C[C@@H](C)[C@H](CN(C)C)OCCCC[C@H](C)O2	none (no result: PDI inh)
COc1ccc(C2c3ccc(O)cc3Oc3ncn(CCN4CCOCC4)c(=N)c32)cc1OC (stereo unspecified)	PDI inh 54
N=c1c2c(ncn1CCN1CCOCC1)Oc1cc(O)ccc1C2c1ccccc1 (stereo unspecified)	none
CO[C@@H]1CN(C)C(=O)c2cc(NC(=O)C3CCOCC3)ccc2OC[C@H](C)NC[C@@H]1C	Cneo AK release 102 (no result: PDI inh)
CO[C@H]1CN(C)C(=O)c2cc(NC(=O)C3CCOCC3)ccc2OC[C@@H](C)NC[C@H]1C	Cneo AK release 107 (no result: PDI inh)
CO[C@H]1CN(C)C(=O)c2cc(NC(=O)C3CCOCC3)ccc2OC[C@@H](C)NC[C@@H]1C	none (no result: PDI inh)
CO[C@@H]1CN(C)C(=O)c2cc(NC(=O)C3CCOCC3)ccc2OC[C@H](C)NC[C@H]1C	none (no result: PDI inh)
Cc1ccc(F)cc1S(=O)(=O)N[C@@H]1CCN(Cc2cccc3[nH]ccc23)C1	none (no result: PDI inh)
CNC[C@@H]1OCCCC[C@@H](C)Oc2ccc(NC(=O)Nc3ccc4c(c3)OCO4)cc2C(=O)N([C@H](C)CO)C[C@@H]1C	Cneo AK release 89 (no result: PDI inh)
CNC[C@H]1OCCCC[C@@H](C)Oc2ccc(NC(=O)NC(C)C)cc2C(=O)N([C@@H](C)CO)C[C@@H]1C	none (no result: PDI inh, Yeast UUG start)
CNC[C@@H]1OCCCC[C@@H](C)Oc2ccc(NC(=O)NC(C)C)cc2C(=O)N([C@@H](C)CO)C[C@H]1C	Cneo AK release 88 (no result: PDI inh, Yeast UUG start)
O=C(NNC(=O)c1ccc2ccccc2c1)Nc1ccc(F)cc1	ERp5 block 26
Cc1cccc(NC(=O)NNC(=O)c2ccc3ccccc3c2)c1	none
CCC(=O)N1[C@H](CO)[C@@H](c2ccccc2)C12CN(Cc1ccccc1F)C2	none (no result: Cneo AK release, PDI inh, Yeast UUG start)
Cc1ccc(S(=O)(=O)N2CC[C@@H]3[C@H]2c2cc(-c4ccccc4F)ccc2N[C@@H]3CO)cc1	Cneo AK release 104 (no result: PDI inh)
O=C(NCCN1CCCC1)[C@@H]1N[C@@H]2c3ccc(C4=CCCCC4)c(=O)n3C[C@@H]2[C@H]1CO	none (no result: PDI inh, Yeast UUG start)
O=C(NCCN1CCCCC1)[C@H]1N[C@H]2c3ccc(-c4ccncc4)c(=O)n3C[C@H]2[C@@H]1CO	Cneo AK release 98 (no result: PDI inh, Yeast UUG start)
C[C@H](CO)N1C[C@H](C)[C@@H](CN(C)Cc2ccc3c(c2)OCO3)OCCCC[C@H](C)Oc2ccc(NS(=O)(=O)c3cn(C)cn3)cc2C1=O	none (no result: ERp5 block, PDI inh)
C[C@@H]1CN([C@@H](C)CO)C(=O)c2cc(NS(=O)(=O)c3cn(C)cn3)ccc2O[C@@H]1CN(C)C(=O)Nc1cccc2ccccc12	Cneo AK release 90 (no result: PDI inh)
C[C@H](CO)N1C[C@H](C)[C@@H](CN(C)C(=O)Nc2cccc3ccccc23)Oc2ccc(NS(=O)(=O)c3cn(C)cn3)cc2C1=O	none (no result: PDI inh)
C[C@@H]1CN([C@H](C)CO)C(=O)c2cc(NS(=O)(=O)c3cn(C)cn3)ccc2O[C@H]1CN(C)C(=O)Nc1cccc2ccccc12	Cneo AK release 100 (no result: PDI inh)
C[C@H](CO)N1C[C@H](C)[C@@H](CN(C)C(=O)c2ccncc2)OCCCC[C@H](C)Oc2ccc(NS(=O)(=O)c3ccccc3)cc2C1=O	none (no result: PDI inh)
Cc1ccc(S(=O)(=O)Nc2ccc3c(c2)C(=O)N([C@H](C)CO)C[C@@H](C)[C@H](CN(C)Cc2ccc(C(=O)O)cc2)OCCCC[C@@H](C)O3)cc1	none (no result: PDI inh)
C[C@@H]1CN([C@H](C)CO)C(=O)c2cc(NC(=O)CCCN(C)C)ccc2O[C@@H](C)CCCCO[C@@H]1CN(C)S(=O)(=O)c1ccccc1	none (no result: PDI inh)
Cc1ccc(S(=O)(=O)N[C@@H]2CCCN(Cc3cccc(OCCO)c3)C2)cc1	Cneo AK release 85 (no result: PDI inh)
CCCn1c(=S)[nH]c2cc(Cl)ccc21	Cneo AK release 151
C[C@@H]1CN([C@H](C)CO)C(=O)c2cccc(NS(=O)(=O)c3cccs3)c2O[C@H]1CN(C)C(=O)Nc1ccc2c(c1)OCO2	none (no result: PDI inh)
C[C@H](CO)N1C[C@H](C)[C@H](CN(C)Cc2ccncc2)Oc2ccc(NC(=O)Nc3cccc4ccccc34)cc2C1=O	none (no result: PDI inh, Yeast UUG start)
CCCNC(=O)N1C[C@@H](O)COC[C@H]2O[C@H](CC(=O)N3CCN(C)CC3)CC[C@@H]21	Cneo AK release 105 (no result: PDI inh, Yeast UUG start)
CCCNC(=O)N1C[C@H](O)COC[C@@H]2O[C@H](CC(=O)N3CCN(C)CC3)CC[C@H]21	none (no result: PDI inh, Yeast UUG start)
CCCNC(=O)N1C[C@H](O)COC[C@H]2O[C@H](CC(=O)N3CCN(C)CC3)CC[C@@H]21	Cneo AK release 118 (no result: PDI inh, Yeast UUG start)
CCCNC(=O)N1C[C@@H](O)COC[C@@H]2O[C@@H](CC(=O)N3CCN(C)CC3)CC[C@H]21	none (no result: PDI inh, Yeast UUG start)
CO[C@@H]1CN(C)C(=O)c2cc(NC(=O)Nc3ccccc3Cl)ccc2OC[C@@H](C)N(S(=O)(=O)CC(F)(F)F)C[C@H]1C	none (no result: PDI inh, Yeast UUG start)
